Test results: US8530461B2 (Boehringer Ingelheim International GmbH, priority 2011, dated 2013)

By UniProt entry, the sequences of proteins in these tests, tags left out. Residues count along the entry.
UniProt O00763, 129-2458 limits assumed: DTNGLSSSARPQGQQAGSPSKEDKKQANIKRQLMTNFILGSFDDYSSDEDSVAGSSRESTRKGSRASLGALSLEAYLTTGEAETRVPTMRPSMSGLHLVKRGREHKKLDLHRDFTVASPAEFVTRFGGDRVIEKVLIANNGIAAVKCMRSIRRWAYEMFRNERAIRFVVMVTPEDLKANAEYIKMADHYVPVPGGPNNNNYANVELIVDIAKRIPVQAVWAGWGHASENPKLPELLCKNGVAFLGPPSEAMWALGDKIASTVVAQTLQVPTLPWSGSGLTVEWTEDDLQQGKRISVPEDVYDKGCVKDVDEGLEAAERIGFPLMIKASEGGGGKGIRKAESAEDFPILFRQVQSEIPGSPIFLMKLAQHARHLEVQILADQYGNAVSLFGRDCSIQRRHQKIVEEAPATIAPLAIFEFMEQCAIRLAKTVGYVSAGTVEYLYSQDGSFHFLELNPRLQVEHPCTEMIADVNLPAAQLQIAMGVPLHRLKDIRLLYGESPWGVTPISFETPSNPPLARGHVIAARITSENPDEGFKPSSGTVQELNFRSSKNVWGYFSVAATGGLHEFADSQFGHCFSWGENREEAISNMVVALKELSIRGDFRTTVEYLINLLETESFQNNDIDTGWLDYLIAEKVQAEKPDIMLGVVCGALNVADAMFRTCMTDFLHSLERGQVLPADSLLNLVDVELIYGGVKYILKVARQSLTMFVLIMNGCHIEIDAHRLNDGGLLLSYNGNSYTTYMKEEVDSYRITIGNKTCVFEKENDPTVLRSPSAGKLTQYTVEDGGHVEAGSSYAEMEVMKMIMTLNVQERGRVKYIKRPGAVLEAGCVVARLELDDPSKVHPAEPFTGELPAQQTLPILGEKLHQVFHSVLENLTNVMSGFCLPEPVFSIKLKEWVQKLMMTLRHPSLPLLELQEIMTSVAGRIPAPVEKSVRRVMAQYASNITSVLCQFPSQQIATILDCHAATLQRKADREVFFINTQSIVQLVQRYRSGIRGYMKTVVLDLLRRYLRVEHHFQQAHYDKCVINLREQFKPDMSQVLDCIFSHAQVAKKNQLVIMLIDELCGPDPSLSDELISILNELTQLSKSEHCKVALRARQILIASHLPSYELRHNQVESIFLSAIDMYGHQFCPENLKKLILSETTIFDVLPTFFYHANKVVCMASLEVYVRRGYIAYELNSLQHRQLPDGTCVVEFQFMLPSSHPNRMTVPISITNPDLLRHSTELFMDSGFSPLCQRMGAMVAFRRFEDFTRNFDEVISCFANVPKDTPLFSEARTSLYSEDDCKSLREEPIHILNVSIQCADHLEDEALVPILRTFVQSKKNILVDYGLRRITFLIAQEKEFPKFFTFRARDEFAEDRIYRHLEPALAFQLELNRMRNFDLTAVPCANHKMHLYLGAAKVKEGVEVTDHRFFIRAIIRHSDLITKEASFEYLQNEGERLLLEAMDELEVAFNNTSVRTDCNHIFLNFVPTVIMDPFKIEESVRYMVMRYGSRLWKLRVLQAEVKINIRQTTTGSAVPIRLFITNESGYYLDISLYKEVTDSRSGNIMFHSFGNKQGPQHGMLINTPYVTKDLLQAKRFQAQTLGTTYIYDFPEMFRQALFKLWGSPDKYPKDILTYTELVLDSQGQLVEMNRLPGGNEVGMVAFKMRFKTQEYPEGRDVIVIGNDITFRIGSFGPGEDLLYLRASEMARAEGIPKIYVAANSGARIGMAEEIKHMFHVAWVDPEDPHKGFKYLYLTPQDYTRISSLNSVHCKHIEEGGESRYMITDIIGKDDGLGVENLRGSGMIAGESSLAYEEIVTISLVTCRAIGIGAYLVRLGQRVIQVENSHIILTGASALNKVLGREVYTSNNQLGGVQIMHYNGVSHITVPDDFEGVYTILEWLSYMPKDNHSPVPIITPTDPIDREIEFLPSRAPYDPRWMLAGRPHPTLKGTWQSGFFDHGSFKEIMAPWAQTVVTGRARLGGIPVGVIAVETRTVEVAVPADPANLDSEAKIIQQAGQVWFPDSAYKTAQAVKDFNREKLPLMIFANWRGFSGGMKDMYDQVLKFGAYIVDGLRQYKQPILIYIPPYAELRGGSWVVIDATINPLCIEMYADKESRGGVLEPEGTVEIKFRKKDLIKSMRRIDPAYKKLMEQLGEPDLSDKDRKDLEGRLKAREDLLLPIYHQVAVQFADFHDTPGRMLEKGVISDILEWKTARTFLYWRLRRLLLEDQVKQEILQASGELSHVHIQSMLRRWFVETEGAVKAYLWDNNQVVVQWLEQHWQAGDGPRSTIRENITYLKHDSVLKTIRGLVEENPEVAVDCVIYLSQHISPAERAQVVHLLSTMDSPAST

Molecular target: human ACC2 (Homo sapiens, UniProt O00763)
Test: ACC2 assay, spectrophotometric 384 well assay (NADH-linked, coupled lactate dehydrogenase/pyruvate kinase)
Conditions: human ACC2 construct lacking 128 N-terminal amino acids, 25° C., 340 nm, 15 minutes
Description: Spectrophotometric 384 Well Assay
Malonyl CoA formation by acetyl CoA carboxylases is stoichometrically linked to the consumption of ATP. ACC2 activity is measured in a NADH-linked kinetic method measuring ADP generated during the ACC reaction using a coupled lactate dehydrogenase/pyruvate kinase reaction.
For biological testing, a human ACC2 construct which lacks the 128 amino acids at the N-terminus for increased solubility (nt 385-6966 in Genbank entry AJ575592) is cloned. The protein is then expressed in insect cells using a baculoviral expression system. Protein purification is performed by anion exchange.
All compounds are dissolved in dimethyl sulfoxide (DMSO) to a concentration of 10 mM.
Assay reactions are then carried out in 384-well plates, with hACC2 in an appropriate dilution and at final assay concentrations (f.c.) of 100 mM Tris (pH 7.5), 10 mM trisodium citrate, 25 mM KHCO3, 10 mM MgCl2, 0.5 mg/ml BSA, 3.75 mM reduced L-glutathione, 15 U/ml lactate dehydrogenase, 0.5 mM phosphoenolpyruvate, 15 U/ml pyruvate kinase, compounds at different concentrations at final DMSO concentrations of 1%.
The enzymatic reaction is then started by addition of a mixture of NADH, acetyl Coenzyme A (both […].) and ATP (500 uM f.c.). The decrease of the optical density (slope S) is then determined at 25° C. at a wavelength of 340 nm over 15 minutes in a spectrophotometric reader. […]

Question: Which IC50 does the source give for `CCOc1ccc(OC2CN(c3ccc([C@H](C)NC(=O)N4CC(C)(O)C4)cc3)C2)cc1` here?
Answer: Its IC50 is 1.46 µM.
